Some compounds may have been tested in ways that are not shown here.
Assays:
[1] = system: anti-TNT monoclonal antibody (A1.1.1); experiment: QCM-based antibody displacement assay with Langmuir model analysis; conditions: for Δfmax (maximum frequency change caused by antibody displacement) / KA (binding affinity constant): Langmuir model fit of QCM data, displacement from TNB; for KA (binding affinity constant): relative affinity for anti-TNT antibody; for normalized frequency change: TNT at limit of detection 0.1 ng/mL
[2] = system: anti-TNT monoclonal antibody (A1.1.1); experiment: ELISA measurement of anti-TNT antibody displacement from TNB-ovalbumin by TNT and TNT analogs; conditions: displacement of antibody A1.1.1 from immobilized TNB-ovalbumin

Structure (SMILES) | Δfmax (maximum frequency change caused by antibody displacement) [1] | KA (binding affinity constant) [1] | normalized frequency change ([1]; QCM, PBS) | normalized frequency change ([1]; QCM, artificial seawater) | frequency change Δf ([1]; QCM, compound at 1 μg/mL) | ΔD/Δf ratio ([1]; QCM, compound at 1 μg/mL) | antibody displacement relative to DNT ([1]; QCM, compounds at 10 μg/mL, at equilibrium) | normalized frequency change ([1]; QCM, fertilizer solution) | Concentration upon 50% of antibody displacement [2] | frequency change Δf ([1]; QCM, compound at 10 μg/mL) | ΔD/Δf ratio ([1]; QCM, compound at 10 μg/mL)
Cc1c([N+](=O)[O-])cc([N+](=O)[O-])cc1[N+](=O)[O-] | 0.73±0.05 | 5.09 ± 0.61 mL/µg | 1.92±0.27 | 1.56±0.16 | 26.65 Hz | 0.0051±0.0011 ×10^−6/Hz | about 3 fold | 1.50±0.15 | 0.025 µg/mL |  | 
Cc1c([N+](=O)[O-])cccc1[N+](=O)[O-] | 0.24 ± 0.11 | 0.47 ± 0.14 mL/µg |  |  |  |  |  |  | >100 µg/mL |  | 
O=[N+]([O-])c1cc([N+](=O)[O-])cc([N+](=O)[O-])c1 | 0.66 ± 0.04 | 1.44 ± 0.62 mL/µg |  |  |  |  |  |  | 0.3 µg/mL | 28.85 Hz | 0.0111±0.0007 ×10^−6/Hz
